The source made the active and inactive calls. No cut-off for these calls is given here.

These results are taken from ChEMBL document CHEMBL5634122, “Integrated fragment-based drug design and virtual screening techniques for exploring the antidiabetic potential of thiazolidine-2,4-diones: Design, synthesis and in vivo studies” (Eur J Med Chem, 2023).

Holding throughout (format): functional, organism-based
One assay concerns Mus musculus. Description: Antidiabetic activity in STZ-induced Swiss albino diabetic mouse model assessed as reduction in blood glucose levels at 36 mg/kg, po measured after 0 to 120 mins by oral glucose tolerance test. The following applies: time 0-120 min.
Assay [1] relates to Danio rerio. Kind of assay: Antidiabetic activity in STZ-induced Zebra fish diabetic model assessed as increase in body weight at 36 mg/kg measured after 10 days. The following applies: time 10.0 day.
For assay [2], the system named is Danio rerio. Kind of assay: Antioxidant activity in STZ-induced Zebra fish diabetic model assessed as reduction in lipid peroxidation level at 36 mg/kg measured after 10 days. The note with it: time 10.0 day.
The subject of assay [3] is Danio rerio. Description: Antioxidant activity in STZ-induced Zebra fish diabetic model assessed as increase in GSH level at 36 mg/kg measured after 10 days by Ellman method. The following applies: time 10.0 day. A general note: DTNB colorimetry detects thiols as they appear.
Assay [4] relates to Danio rerio. Kind of assay: Antioxidant activity in STZ-induced Zebra fish diabetic model assessed as increase in catalase level at 36 mg/kg measured after 10 days by spectrophotometry. The following applies: time 10.0 day.

Consider `CCc1ccc(CCOc2ccc(CC3SC(=O)NC3=O)cc2)nc1` (stereo not given) [PIOGLITAZONE], for which the result with Mus musculus, in the assay on Danio rerio [2], in the assay on Danio rerio [3] and with Danio rerio [4] was Active. In the assay on Danio rerio [1], the outcome was inactive.
